Measured values reported in US20140288069A1, “AMINO-SUBSTITUTED IMIDAZOPYRIDAZINES AS MKNK1 KINASE INHIBITORS” (Bayer Intellectual Property GmbH, priority 2011, published 2014).
pIC50: −log10 of the molar value.

Amino acid sequences for entries named in this document (tags omitted). Residues count along the entry.
UniProt Q9BUB5, 1-424 isoform Q9BUB5-2 T344D: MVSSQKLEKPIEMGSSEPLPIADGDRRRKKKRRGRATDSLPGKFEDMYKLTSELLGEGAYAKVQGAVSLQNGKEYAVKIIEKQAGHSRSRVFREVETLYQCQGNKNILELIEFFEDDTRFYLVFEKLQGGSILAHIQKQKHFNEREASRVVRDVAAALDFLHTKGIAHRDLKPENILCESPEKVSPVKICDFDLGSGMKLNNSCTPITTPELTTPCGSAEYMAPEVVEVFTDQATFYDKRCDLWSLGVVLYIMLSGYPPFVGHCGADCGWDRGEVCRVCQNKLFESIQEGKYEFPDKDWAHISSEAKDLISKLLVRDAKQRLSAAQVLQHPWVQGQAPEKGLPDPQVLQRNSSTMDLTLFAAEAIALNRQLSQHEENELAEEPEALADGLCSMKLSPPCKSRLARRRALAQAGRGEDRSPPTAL

Columns and labels:
human full-lengt MKNK1 = target: T1, human full-lengt MKNK1 (Homo sapiens, UniProt Q9BUB5, T385D); experiment: MKNK1 kinase assay (MKNK1 TR-FRET assay); type: biochemical; conditions: final ATP 10 μM, 15 min pre-incubation, GST-MKNK1 (T344D)
T1 construct: GST (N); purchased Carna Biosciences 02-145; host or cells: insect cells (baculovirus)
Protocol: MKNK1-inhibitory activity of compounds of the present invention was quantified employing the MKNK1 TR-FRET assay as described in the following paragraphs.
As substrate for the kinase reaction the biotinylated peptide biotin-Ahx-[…] (C-terminus in amide form) was used which can be purchased e.g. form the company Biosyntan (Berlin-Buch, Germany).
For the assay 50 mL of a 100 fold concentrated solution of the test compound in DMSO was pipetted into a black low volume 384 well microtiter plate (Greiner Bio-One, Frickenhausen, Germany), 2 μL of a solution of MKNK1 in aqueous assay buffer [50 mM HEPES pH 7.5, 5 mM magnesium chloride, 1.0 mM dithiothreitol, 0.005% (v/v) Nonidet-P40 (Sigma)] was added and the mixture was incubated for 15 min at 22° C. to allow pre-binding of the test compounds to the enzyme before the start of the kinase reaction. […] The concentration of MKNK1 was adjusted depending of the activity of the enzyme lot and was chosen appropriate to have the assay in the linear range, typical concentrations were in the range of 0.05 μg/ml.
The resulting mixture was incubated for 1 h at 22° C. to allow the formation of complex between the phosphorylated biotinylated peptide and the detection reagents. Subsequently the amount of phosphorylated substrate was evaluated by measurement of the resonance energy transfer from the Eu-chelate to the streptavidine-XL.

human full-length MKNK1 = target: T2, human full-length MKNK1 (Homo sapiens, UniProt Q9BUB5, T385D); experiment: MKNK1 kinase high ATP assay (TR-FRET-based); type: biochemical; conditions: final ATP 2 mM, 15 min pre-incubation with MKNK1, GST-MKNK1 (T344D);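 also: biotinylated peptide phosphorylation read out via Eu-chelate to streptavidin-XL665 energy transfer using anti-phospho-S6 (Ser236) antibody, 30 min reaction at 22 °C with 0.06 µM substrate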
T2 construct: GST (N); purchased Carna Biosciences 02-145; host or cells: insect cells (baculovirus)
Protocol: MKNK1-inhibitory activity at high ATP of compounds of the present invention after their preincubation with MKNK1 was quantified employing the TR-FRET-based MKNK1 high ATP assay as described in the following paragraphs.
A recombinant fusion protein of Glutathione-S-Transferase (GST, N-terminally) and human full-length MKNK1 (amino acids 1-424 and T344D of accession number BAA 19885.1), expressed in insect cells using baculovirus expression system and purified via glutathione sepharose affinity chromatography, was purchased from Carna Biosciences (product no 02-145) and used as enzyme. As substrate for the kinase reaction the biotinylated peptide biotin-Ahx-[…] (C-terminus in amide form) was used, which can be purchased e.g. from the company Biosyntan (Berlin-Buch, Germany). […]
The resulting mixture was incubated for 1 h at 22° C. to allow the formation of complex between the phosphorylated biotinylated peptide and the detection reagents. Subsequently the amount of phosphorylated substrate was evaluated by measurement of the resonance energy transfer from the Eu-chelate to the streptavidine-XL. Therefore, the fluorescence emissions at 620 nm and 665 nm after excitation at 350 nm were measured in a TR-FRET reader, e.g. a Rubystar (BMG Labtechnologies, Offenburg, Germany) or a Viewlux (Perkin-Elmer). […]

- pIC50 (human full-lengt MKNK1): 6.93
- pIC50 (human full-length MKNK1): 6.64
SMILES: c1cc(-c2cnc3ccc(NC4CCCCC4)nn23)ccn1 [Example R3, N-Cyclohexyl-3-(pyridin-4-yl)-imidazo-[1,2-b]-pyridazin-6-amine, reference compound]
